The values below come from patent publication US8962608B2, “Cycloalkylnitrile pyrazole carboxamides as janus kinase inhibitors” (Merck Sharp & Dohme Corp., priority 2011, dated 2015).

By UniProt entry, the sequences of proteins in these tests, tags left out. Residues count along the entry.
UniProt O60674, 849-1124: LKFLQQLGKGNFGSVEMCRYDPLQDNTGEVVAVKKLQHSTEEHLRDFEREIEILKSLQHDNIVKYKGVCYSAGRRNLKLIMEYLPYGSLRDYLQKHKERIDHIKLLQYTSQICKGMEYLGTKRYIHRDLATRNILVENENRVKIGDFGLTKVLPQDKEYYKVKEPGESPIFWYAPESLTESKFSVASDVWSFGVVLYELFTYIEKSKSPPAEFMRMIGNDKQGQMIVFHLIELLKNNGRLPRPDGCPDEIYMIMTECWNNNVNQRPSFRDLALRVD
UniProt P23458, 875-1153: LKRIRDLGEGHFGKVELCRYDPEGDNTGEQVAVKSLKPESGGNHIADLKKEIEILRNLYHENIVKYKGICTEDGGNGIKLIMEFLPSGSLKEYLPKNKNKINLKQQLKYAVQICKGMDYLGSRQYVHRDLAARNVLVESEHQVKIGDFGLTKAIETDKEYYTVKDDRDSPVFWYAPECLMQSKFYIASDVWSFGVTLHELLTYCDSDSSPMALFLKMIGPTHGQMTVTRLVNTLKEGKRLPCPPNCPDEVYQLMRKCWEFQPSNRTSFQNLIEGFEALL

pIC50: −log10 of the molar value. Like-named read-outs stand apart in the source and are kept apart here.

The target of experiment [1] is T1, JAK2 (recombinant purified GST-tagged catalytic domain) (Homo sapiens (Human), UniProt O60674).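 Also: biochemical JAK kinase assay with HTRF detection.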
Experiment [2] concerns the target T2, JAK1 (recombinant purified GST-tagged catalytic domain) (Homo sapiens (Human), UniProt P23458).
The target of experiment [3] is T2, JAK1 (recombinant purified GST-tagged catalytic domain). Briefly: biochemical.
Experiment [4] addresses T1, JAK2 (recombinant purified GST-tagged catalytic domain). Briefly: biochemical.

A word on the pIC50: it is −log10 of the IC50, conventionally taken in molar units. On to `CC(O)(c1ccc(Nc2nn([C@H]3CCCC[C@@H]3C#N)cc2C(N)=O)cn1)C(F)F` (single isomer, unassigned) [Example 17-40, 1-[(1S,2S or 1R,2R)-2-cyanocyclohexyl]-3-({6-[(1R or 1S)-2,2-difluoro-1-hydroxy-1-methylethyl]pyridin-3-yl}amino)-1H-pyrazole-4-carboxamide], for which the pIC50 in experiment [1] is 8.30.
Take `N#C[C@H]1C[C@@H](N2CC3(COC3)C2)CC[C@@H]1n1cc(C(N)=O)c(Nc2ccc(C(F)(F)F)cc2)n1` (single isomer, unassigned) [Example 28-120, 1-[(1S,2S,4S or 1R,2R,4R )-2-cyano-4-(2-oxa-6-azaspiro[3.3]hept-6-yl)cyclohexyl]-3-{[4-(trifluoromethyl)phenyl]amino}-1H-pyrazole-4-carboxamide]: the pIC50 in experiment [2] is 9.02.
As to `CC(C)(N[C@@H]1CCC(n2cc(C(N)=O)c(Nc3ccc(Cl)cc3)n2)[C@@H](C#N)C1)C1CC1` (single isomer, unassigned) [Example 28-209, 3-[(4-chlorophenyl)amino]-1-{(1S,2S,4R or 1R,2R,4S)-2-cyano-4-[(1-cyclopropyl-1-methylethyl)amino]cyclohexyl}-1H-pyrazole-4-carboxamide], the pIC50 in experiment [3] is 8.52; in experiment [4], 6.68.
On the same counts, the results for `CC(C)(O)C1CN([C@H]2CCC(n3cc(C(N)=O)c(Nc4ccc(Cl)cc4)n3)[C@@H](C#N)C2)C1` (single isomer, unassigned) [Example 28-211, 3-[(4-chlorophenyl)amino]-1-{(1S,2S,4S or 1R,2R,4R)-2-cyano-4-[3-(1-hydroxy-1-methylethyl)azetidin-1-yl]cyclohexyl}-1H-pyrazole-4-carboxamide] are 8.40 and 7.15.
With `CC(C)(O)C1CN([C@@H]2CCC(n3cc(C(N)=O)c(Nc4ccc(Cl)cc4)n3)[C@@H](C#N)C2)C1` (single isomer, unassigned) [Example 28-212, 3-[(4-chlorophenyl)amino]-1-{(1S,2S,4R or 1R,2R,4S)-2-cyano-4-[3-(1-hydroxy-1-methylethyl)azetidin-1-yl]cyclohexyl}-1H-pyrazole-4-carboxamide], the pIC50 was 9.22 in experiment [3] and 7.44 in experiment [4].
With `N#C[C@H]1C[C@H](N(CC2CC2)C2CCC2)CC[C@@H]1n1cc(C(N)=O)c(Nc2ccc(C(F)(F)F)cc2)n1` (single isomer, unassigned) [Example 30-6, 1-{(1S,2S,4R or 1R,2R,4S)-2-cyano-4-[cyclobutyl(cyclo-propylmethyl)amino]cyclo-hexyl}-3-{[4-(trifluoromethyl)phenyl]amino}-1H-pyrazole-4-carboxamide], the figures for the pIC50 in experiment [3] and in experiment [4] were 6.90 and 5.82, respectively.
For `N#C[C@@H]1C[C@@H](N(CC2CC2)C2CCC2)CC[C@H]1n1cc(C(N)=O)c(Nc2ccc(C(F)(F)F)cc2)n1` (single isomer, unassigned) [Example 30-10, 1-{(1R,2R,4S or 1S,2R,4R)-2-cyano-4-[cyclobutyl(cyclo-propylmethyl)amino]cyclo-hexyl}-3-{[4-(trifluoromethyl)phenyl]amino}-1H-pyrazole-4-carboxamide], the pIC50 in experiment [3] is 8.00; in experiment [4], 6.21.
On the same counts, the results for `N#C[C@H]1C[C@H](N(CC2CC2)C2COC2)CC[C@@H]1n1cc(C(N)=O)c(Nc2ccc(C(F)(F)F)cc2)n1` (single isomer, unassigned) [Example 30-12, 1-{(1S,2S,4R or 1R,2R,4S)-2-cyano-4-[(cyclopropylmethyl)(oxetan-3-yl)amino]cyclohexyl}-3-{[4-(trifluoromethyl)phenyl]amino}-1H-pyrazole-4-carboxamide] are 7.40 and 5.92.
In the same order, the values of `N#C[C@H]1C[C@@H](O)CC[C@@H]1n1cc(C(N)=O)c(Nc2ccc(OC(F)F)cc2)n1` (single isomer, unassigned) [Example 33-7, 1-[(1S,2S,4S or 1R,2R,4R)-2-cyano-4-hydroxycyclohexyl]-3-{[4-(difluoromethoxy)phenyl]amino}-1H-pyrazole-4-carboxamide] are 7.96 and 7.12.
On the same counts, the results for `C[C@](O)(c1ccc(Nc2nn([C@H]3CC[C@H](O)C[C@@H]3C#N)cc2C(N)=O)cc1)C(F)(F)F` (single isomer, unassigned) [Example 33-12, 1-[(1S,2S,4S or 1R,2R,4R)-2-cyano-4-hydroxycyclohexyl]-3-({4-[(1S or 1R)-2,2,2-trifluoro-1-hydroxy-1-methylethyl]phenyl}amino)-1H-pyrazole-4-carboxamide] are 9.35 and 8.70.
For `C[C@@](O)(c1ccc(Nc2nn([C@H]3CC[C@H](O)C[C@@H]3C#N)cc2C(N)=O)cc1)C(F)(F)F` (single isomer, unassigned) [Example 33-13, 1-[(1S,2S,4S or 1R,2R,4R)-2-cyano-4-hydroxycyclohexyl]-3-({4-[(1R or 1S)-2,2,2-trifluoro-1-hydroxy-1-methylethyl]phenyl}amino)-1H-pyrazole-4-carboxamide], the pIC50 in experiment [3] was 9.70; in experiment [4], 9.02.
On the same counts, the results for `CC1(c2ccc(Nc3nn([C@H]4CC[C@H](O)C[C@@H]4C#N)cc3C(N)=O)cc2)COC1` (single isomer, unassigned) [Example 33-19, 1-[(1S,2S,4S or 1R,2R,4R)-2-cyano-4-hydroxycyclohexyl]-3-{[4-(3-methyloxetan-3-yl)phenyl]amino}-1H-pyrazole-4-carboxamide] are 9.00 and 8.40.
On the same counts, the results for `N#C[C@@H]1C[C@H](C(=O)N2CC3(CCC3)C2)CC[C@H]1n1cc(C(N)=O)c(Nc2ccc(Cl)cc2)n1` (single isomer, unassigned) [Example 35-4, 1-[(1R,2R,4R or 1S,2S,4S)-4-(2-azaspiro[3.3]hept-2-ylcarbonyl)-2-cyanocyclohexyl]-3-[(4-chlorophenyl)amino]-1H-pyrazole-4-carboxamide] are 7.80 and 6.88.
On the same counts, the results for `N#C[C@H]1C[C@@H](C(=O)N2CC3(CCC3)C2)CC[C@@H]1n1cc(C(N)=O)c(Nc2ccc(Cl)cc2)n1` (single isomer, unassigned) [Example 35-17, 1-[(1S,2S,4S or 1R,2R,4R)-4-(2-azaspiro[3.3]hept-2-ylcarbonyl)-2-cyanocyclohexyl]-3-[(4-chlorophenyl)amino]-1H-pyrazole-4-carboxamide] are 7.18 and 6.32.
Take `N#C[C@H]1CCCC[C@@H]1n1cc(C(N)=O)c(Nc2ccc(S(=O)(=O)C(F)(F)F)cc2)n1` (single isomer, unassigned) [Example 43-2, 1-[(1S,2S or 1R,2R)-2-cyanocyclohexyl]-3-({4-[(trifluoromethyl)sulfonyl]phenyl}amino)-1H-pyrazole-4-carboxamide]: the pIC50 in experiment [2] was 9.00.
In the case of `N#C[C@H]1CCCCC1n1cc(C(N)=O)c(Nc2ccc(F)cc2)n1` (single isomer, unassigned) [Example 43-3, 1-[(1S,2R or 1R,2S)-2-cyanocyclohexyl]-3-[(4-fluorophenyl)amino]-1H-pyrazole-4-carboxamide], the pIC50 was 7.80 in experiment [3] and 6.82 in experiment [4].
On to `N#C[C@H]1CCCCC1n1cc(C(N)=O)c(Nc2ccc(F)cc2)n1` (single isomer, unassigned) [Example 43-4, 1-[(1R,2S or 1S,2R)-2-cyanocyclohexyl]-3-[(4-fluorophenyl)amino]-1H-pyrazole-4-carboxamide], for which the pIC50 in experiment [3] was 8.70; in experiment [4] it was 7.82.
Regarding `N#C[C@H]1C[C@@H](O)CC[C@@H]1n1cc(C(N)=O)c(Nc2ccc(OC(F)F)nc2)n1` [Example 33-22], the pIC50 in experiment [2] was 8.70.
